The target in this assay is Kappa-type opioid receptor (Cavia porcellus, UniProt P41144). Put plainly: Inhibition of [3H]U-69593 binding to Opioid receptor kappa 1 in guinea pig brain homogenates.

Amino acid sequences for entries named in this document (tags omitted). A change or cut given only in a name is not applied to a line headed by its entry.
UniProt P41144: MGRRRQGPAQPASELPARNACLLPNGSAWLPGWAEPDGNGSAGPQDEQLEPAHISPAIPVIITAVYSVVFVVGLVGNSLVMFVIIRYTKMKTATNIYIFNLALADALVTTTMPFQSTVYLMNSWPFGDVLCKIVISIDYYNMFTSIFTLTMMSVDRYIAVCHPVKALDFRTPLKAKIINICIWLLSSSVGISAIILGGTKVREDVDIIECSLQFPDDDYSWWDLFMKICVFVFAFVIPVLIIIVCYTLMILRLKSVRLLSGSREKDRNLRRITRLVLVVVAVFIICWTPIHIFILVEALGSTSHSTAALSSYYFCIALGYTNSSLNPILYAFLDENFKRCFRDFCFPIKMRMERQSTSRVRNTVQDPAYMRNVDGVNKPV

For one compound, Ki results are on record in BindingDB's records for 10841791.

For orientation: Ki means a dissociation constant, usually derived from enzyme kinetics or from competition with a known ligand.

For the compound `CN(C(=O)Cc1ccc(Cl)c(Cl)c1)[C@@H]1CCCC[C@H]1N1CCCC1`, the affinity, expressed as Ki, was 0.89 nM.
